“And” between values parts separate entries of the source, which are not always exact repeats. Identical values can stand only once. Only a part is listed here, and it is no random draw. Results filed as inconclusive are left out. The source made the active and inactive calls. Calls come from the whole dose curve; as a rule, active = well fitted cell-killing curve with a large enough effect in the repeat runs; inconclusive = weak or mixed curves; inactive = flat fitted curve, though single readings scatter.
Assay: qHTS assay for small molecule agonists of the antioxidant response element (ARE) signaling pathway measured by Nrf2-dependant transcriptional activity - cell viability counter screen (AID 720653)
Settings: ARE-bla HepG2 viability, CellTiter-Glo ATP luminescence, 16 h; active compounds read low
Source text: National Center for Advancing Translational Sciences [NCATS] NIH Chemical Genomics Center [NCGC] U.S. Environmental Protection Agency [EPA] National Institutes of Environmental Health Sciences [NIEHS] National Toxicology Program [NTP] Assay Overview: Oxidative stress has been implicated in the pathogenesis of a variety of diseases ranging from cancer to neurodegeneration. The antioxidant response element (ARE) signaling pathway plays an important role in the amelioration of oxidative stress. The CellSensor ARE-bla HepG2 cell line (Invitrogen) can be used for analyzing the Nrf2/antioxidant response signaling pathway. Nrf2 (NF-E2-related factor 2) and Nrf1 are transcription factors that bind to AREs and activate these genes. The CellSensor ARE-bla HepG2 cell line contains a beta-lactamase reporter gene under control of the Antioxidant Response Element (ARE) stably integrated into HepG2 cells. The activation of the report gene under culture conditions can be detected by fluorescence intensity. The cytotoxicity of the compounds against the ARE-bla HepG2 cell line was quantified by measuring the intracellular ATP content.
Assay Protocol Summary: ARE-bla HepG2 cells were dispensed at 2,000 cells/5 ul/well in 1536-well black wall/clear bottom plates using a Multidrop Combi (ThermoFisher Scientific, Waltham, MA) dispenser. After the assay plates were incubated at 37C/5% CO2 for 5 hrs, 23 nL of compounds dissolved in DMSO, positive controls or DMSO only was transferred to the assay plate by a pintool work station (Kalypsys, San Diego, CA). The plates were incubated at 37C/5% CO2 for 16 hrs. After 1 uL of LiveBLAzer B/G FRET substrate was added using a Flying Reagent Dispenser (FRD) (Aurora Discovery, San Diego, CA), the assay plates were incubated at room temperature for 2 hrs. The fluorescence intensity was measured by an Envision (PerkinElmer, Shelton, CT) plate reader. Cell viability using CellTiter Glo viability assay (Promega, Madison, WI) was also measured by adding 4 ul/well of CellTiter-Glo reagent into the same assay plate using a FRD. After 30 min incubation at room temperature, the luminescence intensity in the plates was measured using a ViewLux (PerkinElmer) plate reader.
% is set by controls: 0 for no effect and ±100 for the full control effect.

Compound	max response
Cc1ccc([N+](=O)[O-])c([N+](=O)[O-])c1	inactive: 7.73% and inactive: -7.18%
Cc1c([N+](=O)[O-])cccc1[N+](=O)[O-]	inactive: -8.18% and inactive: -7.81%
[NH4+].[O-][Cl+3]([O-])([O-])[O-]	inactive: -3.81%
Cc1ccc([N+](=O)[O-])cc1[N+](=O)[O-]	inactive: 0.987% and inactive: 8.02%
CCOP(=O)(CC)OCC	inactive: -4.6%
O=[N+]([O-])c1cccc([N+](=O)[O-])c1	inactive: 14.1% and inactive: -6.43%
Cc1cccc([N+](=O)[O-])c1[N+](=O)[O-]	inactive: -3.89% and inactive: -7.47%
O=[N+]([O-])[O-].[NH4+]	inactive: -7.45%
CCC(C)(OO)OOC(C)(CC)OO (stereo not given)	inactive: 6.94% and inactive: 0.195%
CCOP(=S)(CC)Oc1cc(Cl)c(Cl)cc1Cl (stereo not given)	inactive: -5.73%
